Values of other authors, collected in patent US20100267803A1, “Regulators Of Fat Metabolism As Anti-Cancer Targets” (The Research Foundation of State University Of New York, priority 2008, published 2010).

Test system: metastatic ERBB2-positive breast cancer
Details: single agent therapy; patients with metastatic ERBB2-positive breast cancer; cited from earlier work

In the case of “Herceptin: a monoclonal antibody targeting the extracellular domain of ERBB2”, the response rates is given as 30%.
